Literature values in patent US6653298B2, “Composition” (Sterix Limited, priority 2000, dated 2003).

Conditions: in vivo; cited from earlier work

oestrone sulphate [E1S]
half-life in blood: 10 to 12 h
